Assay [1] deals with T1, Serine/threonine-protein kinase Chk1 (Homo sapiens) (UniProt O14757).
T1 sequence (whole entry): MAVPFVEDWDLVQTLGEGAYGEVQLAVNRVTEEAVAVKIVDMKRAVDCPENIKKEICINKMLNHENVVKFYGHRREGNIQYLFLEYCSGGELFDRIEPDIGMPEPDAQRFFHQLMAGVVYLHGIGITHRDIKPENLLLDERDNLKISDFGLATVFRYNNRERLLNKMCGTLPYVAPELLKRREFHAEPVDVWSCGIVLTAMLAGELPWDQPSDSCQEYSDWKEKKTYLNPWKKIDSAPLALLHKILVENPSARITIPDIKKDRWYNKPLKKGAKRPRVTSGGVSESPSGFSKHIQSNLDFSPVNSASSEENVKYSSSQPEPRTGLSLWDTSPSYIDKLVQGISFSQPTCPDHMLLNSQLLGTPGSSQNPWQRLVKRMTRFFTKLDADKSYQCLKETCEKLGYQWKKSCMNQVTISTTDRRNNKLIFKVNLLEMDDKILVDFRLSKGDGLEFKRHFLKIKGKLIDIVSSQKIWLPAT
Particulars: Mus musculus; NOD/SCID; LN-229; dose 100.0 mg/kg, route po, time 48.0 hrs.

By UniProt entry, the sequences of proteins in these tests, tags left out.
UniProt O96017, whole entry: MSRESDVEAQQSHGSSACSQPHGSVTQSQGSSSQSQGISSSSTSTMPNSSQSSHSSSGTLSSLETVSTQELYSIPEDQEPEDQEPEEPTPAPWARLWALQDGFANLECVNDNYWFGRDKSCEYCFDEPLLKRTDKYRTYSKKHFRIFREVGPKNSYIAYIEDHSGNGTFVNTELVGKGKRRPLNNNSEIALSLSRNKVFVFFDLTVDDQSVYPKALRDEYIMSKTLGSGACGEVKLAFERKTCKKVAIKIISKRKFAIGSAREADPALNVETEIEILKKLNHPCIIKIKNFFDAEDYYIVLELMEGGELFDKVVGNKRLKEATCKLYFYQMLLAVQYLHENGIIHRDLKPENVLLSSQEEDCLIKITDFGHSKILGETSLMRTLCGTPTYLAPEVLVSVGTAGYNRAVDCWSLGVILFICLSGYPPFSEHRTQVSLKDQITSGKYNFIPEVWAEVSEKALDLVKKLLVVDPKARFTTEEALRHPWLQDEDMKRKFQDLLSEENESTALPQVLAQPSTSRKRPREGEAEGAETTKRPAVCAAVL

Assay [2] has as its target T1, Serine/threonine-protein kinase Chk1 (Homo sapiens). Particulars: Mus musculus; LN-229; dose 10-100 mg/kg, route po, time 3-48 hrs.
Assay [3] has the same target. Particulars: Mus musculus; NOD/SCID; LN-229; dose 10-100 mg/kg, route po, time 3-48 hrs.
Assay [4] shares this target. Particulars: Mus musculus; NOD/SCID; LN-229; dose 10-100 mg/kg, route po, time 48.0 hrs.
Assay [5] concerns the target Serine/threonine-protein kinase Chk2 (Homo sapiens, UniProt O96017). Nature of the assay: biochemical.
Assay [6] has as its target T1, Serine/threonine-protein kinase Chk1 (Homo sapiens). Particulars: Mus musculus; NOD/SCID; LN-229; dose 100.0 mg/kg, route po, time 48.0 hrs. The source holds these as a separate data set.

Structures are written as SMILES. The source made the active and inactive calls. The rule behind the calls is not given here.

Regarding `CN(C)[C@@H]1CCN(c2ccc(-n3cnc(Nc4cnc(C#N)cn4)c3)cc2)C1`, the inhibition result in assay [1] and in assay [6] was “Active” each time. In addition, the inhibition result in assay [2] was “Time-dependent-effect”; in assay [3], “Dose-dependent-effect”; in assay [4], “Dose-dependent-effect”. Also, in assay [5], half-maximal inhibition (IC50) was put at 1790 nM.

Values taken from ChEMBL document CHEMBL6177977, “Discovery of a Potent, Selective, and Brain-Penetrant Checkpoint Kinase 1 Inhibitor, BEN-28010, for the Treatment of Glioblastoma” (J Med Chem, 2025).
